Tested on: UVB-induced wrinkle formation
Test: Topical alpha-ketoglutarate on UVB-induced wrinkle formation

In the case of `O=C(O)CCC(=O)C(=O)O` [alpha-ketoglutarate], the skin irritation is reported as “irritating”.

Reference: patent publication US11458114B2, “Methods and compositions for enhancing synthesis secretion and transport of collagen to increase wound strength” (NORTH CELL PHARMACEUTICALS, INC., priority 2020, dated 2022)
